This is an account of results in patent publication US20240360179A1, “STAPLED PEPTIDES AND METHODS THEREOF” (FOG PHARMACEUTICALS, INC., priority 2021, published 2024).

The chains behind the UniProt entries cited, without tags or fusion partners.
UniProt P35222, whole entry: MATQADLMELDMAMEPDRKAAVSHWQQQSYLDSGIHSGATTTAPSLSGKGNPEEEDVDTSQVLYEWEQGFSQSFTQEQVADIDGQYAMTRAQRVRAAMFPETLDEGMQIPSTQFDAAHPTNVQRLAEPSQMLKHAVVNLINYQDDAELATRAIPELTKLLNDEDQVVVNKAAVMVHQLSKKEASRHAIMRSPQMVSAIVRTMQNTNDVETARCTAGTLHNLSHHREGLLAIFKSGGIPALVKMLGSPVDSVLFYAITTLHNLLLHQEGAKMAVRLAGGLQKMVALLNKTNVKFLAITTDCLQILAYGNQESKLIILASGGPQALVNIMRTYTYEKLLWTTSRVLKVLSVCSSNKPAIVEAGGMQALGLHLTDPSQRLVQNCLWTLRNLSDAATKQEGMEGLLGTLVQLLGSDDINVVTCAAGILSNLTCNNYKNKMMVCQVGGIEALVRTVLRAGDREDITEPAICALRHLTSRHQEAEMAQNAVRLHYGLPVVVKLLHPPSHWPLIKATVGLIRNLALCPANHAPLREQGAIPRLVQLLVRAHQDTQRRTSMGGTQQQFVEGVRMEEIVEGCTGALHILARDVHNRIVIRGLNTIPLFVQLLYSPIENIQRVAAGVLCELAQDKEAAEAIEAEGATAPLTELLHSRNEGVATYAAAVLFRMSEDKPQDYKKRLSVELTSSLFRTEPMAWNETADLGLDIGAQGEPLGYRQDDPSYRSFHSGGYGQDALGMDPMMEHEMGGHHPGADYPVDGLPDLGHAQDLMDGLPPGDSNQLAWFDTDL

The term IC50 denotes the concentration that gives 50% inhibition.

In test [1] the target is T1, full-length B-Catenin (Uniprot ID P35222) (Homo sapiens, UniProt P35222).
T1 construct: 10 nM full-length B-Catenin (Uniprot ID P35222)
The test is classed as binding. As to conditions: read-out: beta-Catenin FP IC50.

For test [2], the target named is beta-catenin/TCF4 interaction (Homo sapiens, UniProt P35222). The test is classed as cell-based. Also on record: host or cells: HEK293. As to conditions: read-out: NanoBRET Abs IC50. (Bioluminescence resonance energy transfer reports proximity on the nanometre scale.)
[3] abbreviates: competition fluorescence polarization.

Read-outs that look alike come from different tables or passages of the source.

For “Ac-PL3-Asp-Npg-B5-Asp-3COOHF-Aib-Ala-Phe-Lys*3-PyrS2-3Thi-BztA-GlnR*3-Ala-Ala-Lys-Leu-Pro-Val-nLeu-NH2 [I-815]”, the half-maximal inhibitory concentration (IC50) was under 50 nM in test [1] (setting [3]) and 3000 to 10000 nM in test [2].
Turning to “Ac-PL3-Asp-Npg-B5-Asp-3COOHF-Aib-Ala-Phe-Lys*3-PyrS2-3Thi-BztA-GlnR*3-Leu-NH2 [I-715]”, the results for the IC50 in test [1] (setting [3]) and in test [2] were under 50 nM and under 1500 nM, respectively.
The matching figures for “Ac-PL3-Asp-Npg-B5-Asp-3COOHF-Val-Ser-Phe-Lys*3-PyrS2-3Thi-BztA-GlnR*3-Ala-NH2 [I-1013]”: under 50 nM and 3000 to 10000 nM.
The matching figures for “Ac-PL3-Asp-Ile-B5-Asp-3COOHF-Aib-Ala-Phe-sCH2S*3-PyrS2-Phe-34ClF-TriAzOrn*3-NH2 [I-1862]”: under 50 nM and 3000 to 10000 nM.
Take “Ac-PL3-Asp-Npg-B5-Asp-3COOHF-Aib-Ala-Phe-Lys*3-PyrS2-nLeu-34ClF-GlnR*3-Ala-NH2 [I-474]”: the IC50 is under 50 nM in test [1] (setting [3]) and 3000 to 10000 nM in test [2] (absolute IC50).
On to “Ac-PL3-Asp-Npg-B5-Asp-3COOHF-Aib-Ala-Phe-Lys*3-PyrS2-3Thi-BztA-GlnR*3-Trp-NH2 [I-725]”, for which the figures for the half-inhibitory concentration (IC50) in test [1] (setting [3]) and in test [2] were under 50 nM and 3000 to 10000 nM, respectively.
In the case of “Ac-PL3-Asp-Ile-B5-Asp-3COOHF-GlnBDA*3-Ala-Phe-Val-PyrS2-Phe-34ClF-GlnR*3-NH2 [I-1798]”, the half-inhibitory concentration (IC50) in test [1] (setting [3]) was under 50 nM; in test [2], 3000 to 10000 nM.
Consider “Ac-PL3-Asp-Npg-B5-Asp-3COOHF-Ser-Ala-Phe-Lys*3-PyrS2-3Thi-BztA-GlnR*3-Ala-NH2 [I-390]”, for which the IC50 is under 50 nM in test [1] (setting [3]) and 1500 to 3000 nM in test [2] (absolute IC50).
With “Ac-PL3-Asp-DipA-B5-Asp-3COOHF-Ala-Ala-Phe-Lys*3-PyrS2-3Thi-BztA-GlnR*3-Ala-NH2 [I-982]”, the figures for the IC50 in test [1] (setting [3]) and in test [2] were under 50 nM and 1500 to 3000 nM, respectively.
The matching figures for “Ac-PL3-Asp-Cha-B5-Asp-3COOHF-Aic-Ala-Phe-Lys*3-PyrS2-3Thi-BztA-GlnR*3-Ala-NH2 [I-846]”: under 50 nM and 3000 to 10000 nM.
The matching figures for “Ac-PL3-Asp-Chg-B5-Asp-3COOHF-dAla-Ala-Phe-Lys*3-PyrS2-3Thi-BztA-GlnR*3-Ala-NH2 [I-996]”: under 50 nM and 1500 to 3000 nM.
For the substance “Ac-PL3-Asp-DipA-B5-Asp-3COOHF-CyLeu-Ala-Phe-Lys*3-PyrS2-2F3MeF-BztA-GlnR*3-Val-NH2 [I-1774]”, the half-maximal inhibitory concentration (IC50) was under 50 nM in test [1] (setting [3]) and 3000 to 10000 nM in test [2].
“Ac-PL3-Asp-Npg-B5-Asp-3COOHF-Aib-Lys-Phe-Lys*3-PyrS2-3Thi-BztA-GlnR*3-Ala-NH2 [I-455]”: the figures for the IC50 in test [1] (setting [3]) and in test [2] (absolute IC50) were under 50 nM and over 10000 nM, respectively.
Consider “Ac-PL3-Asp-Npg-B5-Asp-3COOHF-Aib-Ala-Phe-Lys*3-PyrS2-3Thi-BztA-GlnR*3-Leu-NH2 [I-716]”, for which the IC50 is under 50 nM in test [1] (setting [3]) and 1500 to 3000 nM in test [2].
The matching figures for “Ac-PL3-Asp-Npg-B5-Asp-3COOHF-Aib-Ala-Phe-TriAzLys*3-S3MePyrSc7-3Thi-BztA-sAla*3-Ala-NH2 [I-1809]”: under 50 nM and 1500 to 3000 nM.
The matching figures for “Ac-PL3-Asp-Cba-B5-Asp-3COOHF-Cbg-Ala-Phe-Lys*3-PyrS2-3Thi-BztA-GlnR*3-Ala-NH2 [I-860]”: under 50 nM and 3000 to 10000 nM.
In the case of “Ac-PL3-Asp-Npg-B5-Asp-3COOHF-Aib-Ala-2Thi-Lys*3-PyrS2-2Thi-34ClF-GlnR*3-Ala-NH2 [I-922]”, the IC50 is under 50 nM in test [1] (setting [3]) and 3000 to 10000 nM in test [2].
The matching figures for “Ac-PL3-Asp-Npg-B5-Asp-3COOHF-Aib-Ala-Phe-Lys*3-PyrS1-3Thi-BztA-GlnR*3-Ala-NH2 [I-1023]”: under 50 nM and over 10000 nM.
The matching figures for “Ac-PL3-Asp-Chg-B5-Asp-3COOHF-Aib-Gly-Phe-Lys*3-PyrS2-3Thi-BztA-GlnR*3-Ala-NH2 [I-999]”: under 50 nM and 3000 to 10000 nM.
As to “Ac-PL3-Asp-Npg-B5-Asp-3COOHF-Ala-Ala-Phe-Lys*3-PyrS2-Phe-34ClF-GlnR*3-Val-NH2 [I-833]”, the values for the IC50 in test [1] (setting [3]) and in test [2] were under 50 nM and 3000 to 10000 nM, respectively.
“Ac-PL3-Asp-DipA-B5-Asp-3COOHF-CyLeu-Ala-Phe-Lys*3-PyrS2-2F3MeF-BztA-GlnR*3-NH2 [I-1766]”: the IC50 in test [1] (setting [3]) is under 50 nM; in test [2] it was over 10000 nM.
The matching figures for “Ac-PL3-Asp-Npg-B5-Asp-3COOHF-Aib-Ala-Phe-Lys*3-PyrS2-Phe-34ClF-GlnR*3-Ser-NH2 [I-873]”: under 50 nM and 1500 to 3000 nM.
The matching figures for “Ac-PL3-Asp-Ile-B5-Asp-3COOHF-Aib-Ala-Phe-TriAzLys*3-PyrS2-Phe-34ClF-sCH2S*3-NH2 [I-1858]”: under 50 nM and 3000 to 10000 nM.
On to “Ac-PL3-Asp-Cba-B5-Asp-3COOHF-Phe-Ala-Phe-Lys*3-PyrS2-3Thi-BztA-GlnR*3-Ala-NH2 [I-732]”, for which the IC50 is under 50 nM in test [1] (setting [3]) and under 1500 nM in test [2].
The matching figures for “Ac-PL3-Asp-Npg-B5-Asp-3COOHF-Leu-Ala-Phe-Lys*3-PyrS2-2Thi-BztA-GlnR*3-Ala-NH2 [I-926]”: under 50 nM and 3000 to 10000 nM.
The matching figures for “Ac-PL3-Asp-Npg-B5-Asp-3COOHF-Aib-Ala-Phe-Lys*3-PyrS2-Leu-BztA-GlnR*3-Ala-NH2 [I-274]”: 50 to 200 nM and over 10000 nM.
The matching figures for “Ac-PL3-Asp-Npg-B5-Asp-3COOHF-Aib-Ala-Phe-Lys*3-PyrS2-3Thi-34ClF-GlnR*3-Ala-Ala-Ala-[mPEG37]-Lys [I-1708]”: under 50 nM and over 10000 nM.
Consider “Ac-PL3-Asp-Npg-B5-Asp-3COOHF-Aib-Ala-Phe-Lys*3-PyrS2-2Thi-34ClF-GlnR*3-Leu-Ser-NH2 [I-915]”, for which the half-maximal inhibitory concentration (IC50) was under 50 nM in test [1] (setting [3]) and 3000 to 10000 nM in test [2].
The matching figures for “Ac-PL3-Asp-Npg-B5-Asp-3COOHF-Val-aThr-Phe-Lys*3-PyrS2-3Thi-BztA-GlnR*3-Ala-NH2 [I-1021]”: 50 to 200 nM and over 10000 nM.
The matching figures for “Ac-S5-Phe-Asp-Npg-B5-Asp-3COOHF-Aib-Ala-Phe-Lys*3-PyrS2-3Thi-BztA-GlnR*3-Ala-NH2 [I-1137]”: 50 to 200 nM and over 10000 nM.
Regarding “Ac-PL3-Asp-Npg-B5-Asp-3COOHF-Aib-Ala-Phe-Lys*3-PyrS2-3Thi-BztA-GlnR*3-Ala-Ala-Leu-NH2 [I-804]”, the IC50 in test [1] (setting [3]) is under 50 nM; in test [2], under 1500 nM.
The matching figures for “Ac-PL3-Asp-DipA-B5-Asp-3COOHF-Aib-Ser-Phe-Lys*3-PyrS2-3Thi-BztA-GlnR*3-Ala-NH2 [I-1004]”: under 50 nM and 3000 to 10000 nM.
The matching figures for “Hex-PL3-Asp-Npg-B5-Asp-3COOHF-Aib-Ala-Phe-Lys*3-PyrS2-3Thi-BztA-GlnR*3-Ala-NH2 [I-746]”: under 50 nM and 3000 to 10000 nM.
The matching figures for “Ac-PL3-Asp-Npg-B5-Asp-3COOHF-Ala-Ala-Phe-Leu-[Red][Gly]Dap-3thi-BztA-Ala-GlnR-NH2 [I-1213]”: 50 to 200 nM and over 10000 nM.
In the case of “Ac-PL3-Asp-Npg-B5-Asp-3COOHF-Aib-Ala-Phe-Lys*3-PyrS2-3Thi-BztA-hGlnR*3-Ala-NH2 [I-787]”, the IC50 is under 50 nM in test [1] (setting [3]) and 1500 to 3000 nM in test [2].
With “Ac-PL3-Asp-nLeu-B5-Asp-3COOHF-Aic-Ala-Phe-Lys*3-PyrS2-3Thi-BztA-GlnR*3-Ala-NH2 [I-848]”, the IC50 in test [1] (setting [3]) is under 50 nM; in test [2], 3000 to 10000 nM.
The matching figures for “Isobutyryl-PL3-Asp-Npg-B5-Asp-3COOHF-Aib-Ala-Phe-Lys*3-PyrS2-3Thi-BztA-GlnR*3-Ala-NH2 [I-799]”: under 50 nM and 3000 to 10000 nM.
Regarding “Ac-S5-Phe-Asp-Npg-B5-Asp-3COOHF-Aib-Ala-Phe-Lys*3-PyrS2-3Thi-BztA-GlnR*3-Ala-NH2 [I-1136]”, the IC50 in test [1] (setting [3]) is under 50 nM; in test [2], over 10000 nM.
The matching figures for “Ac-PL3-Asp-Cba-B5-Asp-3COOHF-Cha-Ala-Phe-Lys*3-PyrS2-3Thi-BztA-GlnR*3-Ala-NH2 [I-734]”: under 50 nM and 1500 to 3000 nM.
“Ac-PL3-Asp-Npg-B5-Asp-3COOHF-Aib-Ala-Phe-TriAzLys*3-S3iPrPyrSc7-3Thi-BztA-sAla*3-Ala-NH2 [I-1812]”: the IC50 is under 50 nM in test [1] and over 10000 nM in test [2].
Regarding “Ac-PL3-Asp-Npg-B5-Asp-3COOHF-Ala-Ala-Phe-Lys*3-PyrS2-2F3MeF-34ClF-GlnR*3-Leu-NH2 [I-827]”, the IC50 in test [1] (setting [3]) was under 50 nM; in test [2], 3000 to 10000 nM.
“Ac-PL3-Asp-DipA-B5-Asp-3COOHF-Aib-Gly-Phe-Lys*3-PyrS2-3Thi-BztA-GlnR*3-Ala-NH2 [I-1008]”: the half-maximal inhibitory concentration (IC50) is under 50 nM in test [1] (setting [3]) and 3000 to 10000 nM in test [2].
The matching figures for “Ac-PL3-Asp-DipA-B5-Asp-3COOHF-Phe-Ala-Phe-Lys*3-PyrS2-3Thi-BztA-GlnR*3-Ala-NH2 [I-738]”: under 50 nM and 3000 to 10000 nM.
Turning to “Ac-PL3-Asp-DipA-B5-Asp-3COOHF-Ala-Ala-Phe-Lys*3-PyrS2-3Thi-34ClF-GlnR*3-Ala-Ala-Ala-[mPEG37]-Lys [I-1706]”, the IC50 in test [1] (setting [3]) was under 50 nM; in test [2] it was over 10000 nM.
The matching figures for “Ac-PL3-Asp-Npg-B5-Asp-3COOHF-Aib-Ala-Phe-Lys*3-PyrS2-3Thi-34ClF-GlnR*3-Pro-NH2 [I-868]”: under 50 nM and 3000 to 10000 nM.
The matching figures for “Ac-PL3-Asp-Npg-B5-Asp-3COOHF-Aib-Ala-Phe-Lys*3-PyrS2-BztA-34ClF-GlnR*3-Ala-NH2 [I-945]”: under 50 nM and 3000 to 10000 nM.
Take “Ac-PL3-Asp-Ile-B5-Asp-3COOHF-Ala-Ala-Phe-Lys*3-PyrS2-3Thi-BztA-GlnR*3-Ala-NH2 [I-970]”: the concentration for half-maximal inhibition (IC50) in test [1] (setting [3]) is under 50 nM; in test [2], 1500 to 3000 nM.
